# Earlier results as cited in US20230046278A1, “METHOD FOR COLOURING KERATIN MATERIAL, COMPRISING THE USE OF AN ORGANIC C1-C6 ALKOXYSILANE AND TWO STRUCTURALLY DIFFERENT CELLULOSE TYPES” (Henkel AG & Co. KGaA, priority 2019, published 2023).
# Conditions: 25° C.
substance,measurement,value
"3,4,5,6-tetrachloro-2-(1,4,5,8-tetrabromo-6-hydroxy-3-oxoxanthen-9-yl)benzoic acid [Acid Red 92]",solubility in water,greater than 10 g/L
